# Tests used:
# [1] = species: Rattus norvegicus; test: Selectivity ratio of Ki for SERT in Sprague-Dawley rat midbrain membranes to Ki for DAT in Sprague-Dawley rat striatum membranes
# [2] = Selectivity ratio of Ki for sigma 1 receptor in guinea pig brain cortex membranes to Ki for DAT in Sprague-Dawley rat striatum membranes; format: cell membranes
Structure (SMILES),Ratio Ki [1],Ratio Ki [2]
O=C(c1cc2ccccc2o1)N1CCC(NCCSC(c2ccc(F)cc2)c2ccc(F)cc2)CC1,0.84,2.64
O=C(c1ccc(F)cc1F)N1CCC(NCCSC(c2ccc(F)cc2)c2ccc(F)cc2)CC1,9.87,0.69

# From ChEMBL document CHEMBL4706586, “Structure-activity relationships for a series of (Bis(4-fluorophenyl)methyl)sulfinylethyl-aminopiperidines and -piperidine amines at the dopamine transporter: Bioisosteric replacement of the piperazine improves metabolic stability” (Eur J Med Chem, 2020)
